# Results published in ChEMBL document CHEMBL4049450, “Discovery of 5-Azaindazole (GNE-955) as a Potent Pan-Pim Inhibitor with Optimized Bioavailability” (J Med Chem, 2017).
# By UniProt entry, the sequences of proteins in these tests, tags left out.
# UniProt P11309, whole entry: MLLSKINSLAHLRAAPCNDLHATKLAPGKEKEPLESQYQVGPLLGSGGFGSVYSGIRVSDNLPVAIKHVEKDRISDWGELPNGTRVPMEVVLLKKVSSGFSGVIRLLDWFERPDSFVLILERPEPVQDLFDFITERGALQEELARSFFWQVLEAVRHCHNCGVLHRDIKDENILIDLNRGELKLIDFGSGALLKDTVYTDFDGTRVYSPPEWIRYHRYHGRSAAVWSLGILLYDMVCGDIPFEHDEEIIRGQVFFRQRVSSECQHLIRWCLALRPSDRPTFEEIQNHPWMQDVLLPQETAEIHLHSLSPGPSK
# How the values were obtained:
# [1] = target: Serine/threonine-protein kinase pim-1 (Homo sapiens, UniProt P11309); test: Inhibition of PIM1 (unknown origin) using 5FAM-ARKRRRHPSGPPTA as substrate after 90 mins in presence of ATP by caliper microfluidic mobility shift assay
# [2] = target: Serine/threonine-protein kinase pim-3 (Homo sapiens, UniProt Q86V86); test: Inhibition of PIM3 (unknown origin) using 5FAM-ARKRRRHPSGPPTA as substrate after 90 mins in presence of ATP by caliper microfluidic mobility shift assay
Ki [1],Ki [2],Structure (SMILES)
0.6 nM,–,CCn1cc(-c2cc3c(-c4cccc(N5CCOCC5)n4)n[nH]c3cn2)cn1
–,0.02 nM,Cc1cncc(-c2cc3c(cn2)cnn3-c2cccc([C@H]3CNCCC3(F)F)n2)n1
